# Measured properties of organic chemicals

Values as listed in the OPERA 2.9 repository of K. Mansouri.

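The OPERA project collected these measurements from public sources as training and test data for property models. A listed value is a point estimate from one report or more. Method, purity and exact conditions of the single measurements are not given. The measured form (salt, isomer or mixture) is not always the one drawn. Some entries may be limits or estimates that an upstream database listed as plain numbers.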

Melting points are in °C. Boiling points are in °C, nominally at 760 mmHg. logP is the log10 of the octanol-water partition coefficient; higher is more lipophilic. Solubility in water is on a log10 molar scale (set defined at 25 °C). Vapor pressure is log10 of mmHg; the set covers 15 to 30 °C, mostly 20 to 25 °C. Henry's law constant (air-water partitioning) is log10 of atm·m3/mol, nominally at 25 °C. fu is the fraction unbound in human plasma, from 0 to 1. Intrinsic clearance (human, µL/min per 10^6 hepatocytes): higher is faster turnover, and 0 stands for none detected. Cells with "n/a" have no entry in this list.

SMILES,name,MP (°C),boiling point (°C),logP (octanol/water),water solubility (log10 mol/L),log vapor pressure (log10 mmHg),Henry's law constant (log10 atm·m3/mol),fu,hepatic Clint (µL/min/10^6 cells)
Cc1cccc(C)c1OP(=O)(Oc1cccc(OP(=O)(Oc2c(C)cccc2C)Oc2c(C)cccc2C)c1)Oc1c(C)cccc1C,n/a,94.85,n/a,n/a,n/a,-5.523,n/a,n/a,n/a
CCCCCCCCCC[N+](C)(C)CCCCCCCCCC.[Cl-],Didecyldimethylammonium chloride,n/a,n/a,0.39,n/a,-4.367,n/a,n/a,n/a
CCCCCCCCO[PH](=O)OCCCCCCCC,Dioctyl phosphonate,-12.3,n/a,n/a,-3.812,n/a,n/a,n/a,n/a
CC(C)OC(=O)Nc1cccc(Cl)c1,Chlorpropham,n/a,n/a,n/a,n/a,n/a,n/a,0.0429,78.1
ClCc1ccccc1Cl,2-Chlorobenzyl chloride,n/a,n/a,3.32,n/a,-0.824,n/a,n/a,n/a
C#CCOS(=O)OC1CCCCC1Oc1ccc(C(C)(C)C)cc1 (stereo not drawn),Propargite,n/a,n/a,n/a,n/a,n/a,n/a,0.0133,24
c1coc(-c2nc3ccccc3[nH]2)c1,Fuberidazole,n/a,n/a,n/a,-3.41,-8.171,n/a,n/a,n/a
CCOC(=O)C(Cl)C(C)=O (stereo not drawn),Ethyl 2-chloroacetoacetate,n/a,n/a,1.2,n/a,-0.278,n/a,n/a,n/a
Cc1cc(C)cc(OP(=O)(Oc2cc(C)cc(C)c2)Oc2cc(C)cc(C)c2)c1,"Tris(3,5-xylenyl)phosphate",46,n/a,n/a,-5.66,n/a,n/a,n/a,n/a
CS(=O)(=O)c1ccc(C(=O)C2C(=O)CCCC2=O)c(Cl)c1COCC(F)(F)F,Tembotrione,n/a,n/a,n/a,-1.19,n/a,n/a,0.0919,n/a
CCCCC(CC)COP(=S)([S-])OCC(CC)CCCC.CCCCC(CC)COP(=S)([S-])OCC(CC)CCCC.[Zn+2] (stereo not drawn),n/a,-27,n/a,n/a,n/a,-5.502,n/a,n/a,n/a
COS(=O)(=O)OC,Dimethyl sulfate,n/a,n/a,0.16,-0.662,n/a,n/a,n/a,n/a
CC(C)=CC1C(C(=O)OCc2cccc(Oc3ccccc3)c2)C1(C)C (stereo not drawn),Phenothrin,n/a,290,n/a,n/a,n/a,-5.176,n/a,n/a
CCCCCCC1(CC)C(=O)NC(=O)NC1=O,Hexethal (5-ethyl-5-hexylbarbituric acid),125,n/a,n/a,-3.05,n/a,n/a,n/a,n/a
C#C[C@]1(O)CC[C@H]2[C@@H]3C=CC4=CC(=O)CC[C@@H]4[C@H]3CC[C@@]21C,"(17alpha)-17-Hydroxy-19-norpregna-4,6-dien-20-yn-3-one",242.9,n/a,2.6,-5.254,-9.639,n/a,n/a,n/a
CC(=O)Cc1c(Cl)cc(Cl)cc1Cl,"1-(2,4,6-Trichlorophenyl)-2-propanone",68.3,296,3.2,-3.59,-3.264,n/a,n/a,n/a
CN1CCC(Cl)CC1,"Piperidine, 4-chloro-1-methyl-",n/a,n/a,1.318,-1.94,n/a,n/a,n/a,n/a
CCCC(C)C1(CC)C(=O)N=C(O)NC1=O (stereo not drawn),Pentobarbital,n/a,n/a,n/a,n/a,n/a,n/a,0.3873,0.723
Oc1ccc(C(c2ccc(O)cc2)(C(F)(F)F)C(F)(F)F)cc1,Bisphenol af,n/a,n/a,n/a,n/a,n/a,n/a,0.00685,125
Nc1nnn[nH]1,Tetrazol-5-ylamine,n/a,n/a,-0.92,-0.836,-8.277,n/a,n/a,n/a
COC(=O)NS(=O)(=O)c1ccc(N)cc1,Asulam,n/a,n/a,n/a,n/a,n/a,n/a,0.456,1.8
O=[N+]([O-])c1cc(C(F)(F)F)c(Cl)c([N+](=O)[O-])c1Nc1ncc(C(F)(F)F)cc1Cl,Fluazinam,n/a,n/a,n/a,-5.98,-4.251,n/a,n/a,n/a
c1ccc(-c2ccccc2)cc1,Biphenyl,n/a,n/a,n/a,n/a,n/a,n/a,0.01557,14.18
[Na+].[O-][n+]1ccccc1[S-],Sodium (2-pyridylthio)-N-oxide,n/a,n/a,0.003,n/a,-6.628,n/a,n/a,n/a
c1ccc(-c2ncc[nH]2)cc1,"1H-Imidazole, 2-phenyl-",n/a,n/a,n/a,-1.889,-4.154,n/a,n/a,n/a
O=C(Cc1ccccc1)OCc1ccccc1,Benzyl phenylacetate,-11.32,n/a,3.479,n/a,-3.858,n/a,n/a,n/a
CCC(C)(C)OOC1(OC)CCCCC1,1-Methoxy-1-[(2-methylbutan-2-yl)peroxy]cyclohexane,n/a,n/a,4.04,-3.686,-1.824,n/a,n/a,n/a
CCCCC(CC)CO[N+](=O)[O-] (stereo not drawn),2-Ethylhexyl nitrate,n/a,n/a,5.24,-4.147,-0.694,n/a,n/a,n/a
NC(=O)OC[C@H](O)[C@@H](O)[C@H](N)C(=O)N[C@H](C(=O)O)[C@H]1O[C@@H](n2cc(C(=O)O)c(=O)[nH]c2=O)[C@H](O)[C@@H]1O,Polyoxin D,n/a,n/a,n/a,-1.17,-0.001,n/a,n/a,n/a
COc1ccc(C(C)(C)C)cc1CN[C@H]1C2CCN(CC2)[C@H]1C(c1ccccc1)c1ccccc1,Maropitant,131.9,n/a,n/a,-4.686,-9.02,n/a,n/a,n/a
C=C(Cl)CN=C=S,"Isothiocyanic acid, 2-chloroallyl ester",-56.5,n/a,n/a,n/a,-0.072,n/a,n/a,n/a

4 of these entries, quoted again:

| SMILES | name | MP (°C) | boiling point (°C) | logP (octanol/water) | water solubility (log10 mol/L) | log vapor pressure (log10 mmHg) | Henry's law constant (log10 atm·m3/mol) | fu | hepatic Clint (µL/min/10^6 cells) |
|---|---|---|---|---|---|---|---|---|---|
| c1ccc(-c2ncc[nH]2)cc1 | 1H-Imidazole, 2-phenyl- | n/a | n/a | n/a | -1.889 | -4.154 | n/a | n/a | n/a |
| Nc1nnn[nH]1 | Tetrazol-5-ylamine | n/a | n/a | -0.92 | -0.836 | -8.277 | n/a | n/a | n/a |
| CCCCC(CC)COP(=S)([S-])OCC(CC)CCCC.CCCCC(CC)COP(=S)([S-])OCC(CC)CCCC.[Zn+2] (stereo not drawn) | n/a | -27 | n/a | n/a | n/a | -5.502 | n/a | n/a | n/a |
| CN1CCC(Cl)CC1 | Piperidine, 4-chloro-1-methyl- | n/a | n/a | 1.318 | -1.94 | n/a | n/a | n/a | n/a |